Values of other authors as cited in paper PMC11859092 (Pharmaceutics, 2025).

Conditions: in some cases; cited from earlier work

In the case of O=C1Nc2ccc(Cl)cc2[C@@](C#CC2CC2)(C(F)(F)F)O1 [EFV, Efavirenz], the “plasma concentrations, highest reached” value is listed as ≤ 25.3 µg/mL.
